{"source": "patent US6355784B1", "about": "“Methods and compositions for the manufacture of halogenated anthracyclines with increased antitumor activity, other anthracyclines, halogenated sugars, and glycosyl donors” (priority 1998, dated 2002)", "key": {"MCF-7/VP-16 (MRP) cells": {"tested_on": "MCF-7/VP-16 (MRP) cells", "conditions": "compared with DOX"}, "KB cells": {"tested_on": "KB cells", "assay": "MTT cytotoxicity assay, sensitive KB cells", "conditions": "relative to doxorubicin"}}, "data": [{"substance": "6′-fluoro-doxorubicin [WP 743]", "values": [{"measurement": "cytotoxicity in MCF-7/VP-16 cells, in words", "setting": "MCF-7/VP-16 (MRP) cells", "value": "significant increase in cytotoxicity"}, {"measurement": "fold more cytotoxic than doxorubicin against sensitive KB cells", "setting": "KB cells", "value": 6.4, "unit": "fold"}]}]}
